Earlier results on 2 compounds are cited in patent US9108900B2, “Method of treating diseases that respond to therapy by dopamine or dopamine agonists” (UCB Pharma GmbH, priority 2003, dated 2015).

Chains of the proteins cited; added tags and fusions are not shown.
UniProt P35462, whole entry: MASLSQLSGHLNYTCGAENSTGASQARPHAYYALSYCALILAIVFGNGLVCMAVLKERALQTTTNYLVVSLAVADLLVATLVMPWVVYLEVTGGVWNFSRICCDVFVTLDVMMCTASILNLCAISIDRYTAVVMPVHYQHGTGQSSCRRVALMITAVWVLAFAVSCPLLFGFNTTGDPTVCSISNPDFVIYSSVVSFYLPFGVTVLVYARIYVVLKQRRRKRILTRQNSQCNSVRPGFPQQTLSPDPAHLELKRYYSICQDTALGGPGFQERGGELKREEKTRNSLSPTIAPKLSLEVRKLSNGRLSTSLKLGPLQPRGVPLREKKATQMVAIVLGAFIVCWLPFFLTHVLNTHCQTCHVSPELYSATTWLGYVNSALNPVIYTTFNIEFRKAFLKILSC

The target of this data set is D3 receptor (Homo sapiens, UniProt P35462). The conditions noted are these: Hacking & Stark, ChemBioChem 2002, 947; cited from earlier work.

Consider `CCCNC1CCc2c(OC)cccc2C1C` (centres unmarked) [AJ76], for which the “D3 preference in comparison to (S)-2-N-propylamino-5-hydroxytetralin” value is “reduced D3 preference”.

As for `CCCN(CCC)[C@@H]1CCc2c(OC)cccc2[C@@H]1C` [UH232], the “D3 preference in comparison to (S)-2-N-propylamino-5-hydroxytetralin” value was “reduced D3 preference”.
